Series [1] concerns EGFR positive cells (MDA-MB-468, A431). The series is described as follows: Cell proliferation assay, EGFR positive cells taken together. It is filed as cell-based, human. Conditions: span over MDA-MB-468 and A431, 4 days incubation. The procedure: Next, we evaluated selective cell killing capabilities of the Fcab-drug conjugates in an in vitro cell proliferation assay (FIG. 7). […] Human cancer cell lines were obtained from the American Type Culture Collection (EGFR positive: MDA MB 468, A431; EGFR negative: MCF 7) and maintained according to standard culture conditions (37° C., 5% CO2, 95% humidity). A431 and MCF 7 cells were cultured in DMEM high glucose medium supplemented with 10% fetal bovine serum (FBS), 2 mM L-glutamine and 1 mM sodium pyruvate. […] For sub-culturing, adherent grown cells were detached by adding 0.05% trypsin-EDTA, diluted with fresh medium and transferred into a new culturing flask. […] Test compounds were added using a D300e digital dispenser (Tecan). […] All wells were normalized to the maximum amount of Tween 20 added. Cell viability was determined after 4 d using Cell Titer Glo reagent (Promega) according to the manufacturer's instructions. Luminescence values were normalized to luminescence of non-treated cells and dose-response was fitted using the asymmetric (five parameter) fitting function of GraphPad Prism (GraphPad Software, Inc.) to derive IC50 values.

Series [2] concerns EGFR positive (MDA MB 468 and A431) and EGFR negative (MCF 7) cells. The series is described as follows: Cellular binding analysis by flow cytometry. It is filed as cell-based, human. The note with it: 100 nM, 60 min at 4° C., AF488-labeled detection antibody. The protocol: Cells were incubated with 100 nM of Fcab/C IgG for 60 min at 4° C., washed twice with PBS-1% BSA, incubated for 30 min with 500 nM of AF488-labeled detection antibody (109-546-008, Jackson ImmunoResearch) at 4° C. in darkness, washed twice with PBS-1% BSA, and finally fluorescence intensity was measured applying an Attune NxT flow cytometer (Invitrogen™).
On the technique in general: A flow cytometer gives signals particle by particle.

The conditions of series [3]: cited from earlier work.

The IC50 is the concentration at which inhibition is half-maximal. A low value points to greater potency. As for C-Fab-MMAE, the IC50 in series [1] fell in the range of 0.78 to 0.99 nM.

For the substance C-IgG-MMAE, the IC50 in series [1] was 0.44 to 0.5 nM. Consider “C-IgG: Cetuximab modified with LC C-terminal (G4S)3-LPETGS sortase A recognition tag, SEQ ID No. 8 and 9”, for which the cellular binding result in series [2] is listed as “bind selectively EGFR expressing cells”. As to “Trastuzumab Fab: Fab fragment of Trastuzumab lacking the Fc portion, literature comparator”, the “mouse terminal t1/2” value in series [3] is given as 4.4 h.

Values taken from patent US20240226319A1, “EGFR TARGETING FC ANTIGEN BINDING FRAGMENT-DRUG CONJUGATES” (MERCK PATENT GMBH, priority 2021, published 2024).
